Assay results taken from ChEMBL document CHEMBL1140217, “Prolyl oligopeptidase inhibition by N-acyl-pro-pyrrolidine-type molecules” (J Med Chem, 2008).

Molecular target: T1, Prolyl endopeptidase (Rattus norvegicus, UniProt O70196)
T1 sequence (O70196 whole entry): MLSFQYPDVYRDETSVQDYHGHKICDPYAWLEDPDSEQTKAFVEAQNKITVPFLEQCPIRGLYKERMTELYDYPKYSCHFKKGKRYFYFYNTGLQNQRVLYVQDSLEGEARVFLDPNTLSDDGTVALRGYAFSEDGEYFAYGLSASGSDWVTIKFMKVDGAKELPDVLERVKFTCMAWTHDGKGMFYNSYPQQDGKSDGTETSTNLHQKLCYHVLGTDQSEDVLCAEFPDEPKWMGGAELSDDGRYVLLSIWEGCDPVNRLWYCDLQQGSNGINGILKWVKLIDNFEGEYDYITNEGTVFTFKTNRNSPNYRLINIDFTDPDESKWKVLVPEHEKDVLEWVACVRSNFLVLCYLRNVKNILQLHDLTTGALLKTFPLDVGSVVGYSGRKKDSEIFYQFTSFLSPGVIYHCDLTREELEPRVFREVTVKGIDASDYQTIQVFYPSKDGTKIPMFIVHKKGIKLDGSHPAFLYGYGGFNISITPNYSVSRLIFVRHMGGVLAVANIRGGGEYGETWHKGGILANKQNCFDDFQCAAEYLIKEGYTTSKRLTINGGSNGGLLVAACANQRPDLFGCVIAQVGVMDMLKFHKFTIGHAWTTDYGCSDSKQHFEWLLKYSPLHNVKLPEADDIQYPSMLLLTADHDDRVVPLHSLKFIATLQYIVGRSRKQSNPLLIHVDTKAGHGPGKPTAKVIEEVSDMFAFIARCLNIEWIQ
Assay: Inhibition of POP in Sprague-Dawley rat brain homogenates
Format: tissue-based

- IC50: 41 nM
Structure (SMILES): O=C([C@@H]1CCCN1C(=O)CCCN1C(=O)NC(c2ccccc2)(c2ccccc2)C1=O)N1CCCC1
